Assay results as given in patent publication US9045526B2 (THE REGENTS OF THE UNIVERSITY OF MICHIGAN, priority 2011, dated 2015).

Sequences of proteins named here, by UniProt entry; tags and fusion partners are left off.
UniProt P33535, whole entry: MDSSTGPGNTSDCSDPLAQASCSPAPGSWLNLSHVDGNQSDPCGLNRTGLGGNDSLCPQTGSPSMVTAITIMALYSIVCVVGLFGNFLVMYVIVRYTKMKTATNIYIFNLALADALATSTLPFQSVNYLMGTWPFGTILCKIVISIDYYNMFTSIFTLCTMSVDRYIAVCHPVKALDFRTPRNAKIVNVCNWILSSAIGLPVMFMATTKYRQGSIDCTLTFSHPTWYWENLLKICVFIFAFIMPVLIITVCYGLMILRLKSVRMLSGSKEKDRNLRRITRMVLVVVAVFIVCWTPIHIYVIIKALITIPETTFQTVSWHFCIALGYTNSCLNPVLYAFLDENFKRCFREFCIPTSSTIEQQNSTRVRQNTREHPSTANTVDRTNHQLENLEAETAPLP

What was measured:
[1] = target: T1, mu-opioid receptor (MOR) (Rattus norvegicus, UniProt P33535); experiment: Radioligand binding, displacement of [3H]diprenorphine, C6-MOR membranes; conditions: MOR over DOR
[2] = target: T1, mu-opioid receptor (MOR); conditions: read-out: EC50 as MOR agonist; reported by McFadyen et al. 2000, compared to fentanyl; cited from earlier work

**Q.** For `CC1(C)SCCSC[C@@H](NC(=O)[C@@H](N)Cc2ccc(O)cc2)C(=O)N[C@@H](Cc2ccccc2)C(=O)N[C@H]1C(N)=O`, which “MOR selectivity in binding to opioid receptors” value [1] is on record?
**A.** 100 fold

**Q.** What about the EC50 [2] of the same compound?
**A.** 2.93 nM
